Values joined by “and” are separate entries in the source; they are usually repeats but may differ in a detail not shown here. Equal entries are not always repeated. Where two headings read alike, the source gives them in different places.
Experiments:
SSTR4 = SSTR4 (Homo sapiens, UniProt P31391); assay: Competitive binding assay with [125I]Tyr11-Somatostatin 14, SSTR4
SSTR3 = SSTR3 (Homo sapiens, UniProt P32745); assay: Competitive binding assay with [125I]Tyr11-Somatostatin 14, SSTR3; conditions: read-out: Ki value against SSTR3; Example 69-2, Table 3B
SSTR2 = SSTR2 (Homo sapiens, UniProt P30874); assay: Competitive binding assay with [125I]Tyr11-Somatostatin 14, SSTR2; conditions: read-out: Ki value against SSTR2; Example 69-2, Table 3B
[1] = Pharmacokinetics test with rats (intravenous and subcutaneous administration); conditions: for AUC increase compared to the non-glycosylated form SRIF28 / t1/2 extension compared to the non-glycosylated form SRIF28 / AUC increase compared to the non-glycosylated form SRIF14 / t1/2 extension compared to the non-glycosylated form SRIF14: administered intravenously; for MRT / T1/2: Tables 5B-5F (unit not given; Table 5A: min); for bioavailability (BA): subcutaneous vs intravenous AUC; for increase in half-life in blood: as measured in the method of Example 70
[2] = read-out: Ki value against SSTR4; Example 69-2, Table 3B
[3] = Example 69-2, Table 3B; read-out: Ki value against SSTR4
[4] = rats, intravenous administration, Table 5A
[5] = rats, subcutaneous administration, Table 5A
[6] = rats, intravenous administration

The chains behind the UniProt entries cited, without tags or fusion partners. Where a name states a change or a piece, a line headed by the entry shows the natural chain unless it says otherwise.
UniProt P31391: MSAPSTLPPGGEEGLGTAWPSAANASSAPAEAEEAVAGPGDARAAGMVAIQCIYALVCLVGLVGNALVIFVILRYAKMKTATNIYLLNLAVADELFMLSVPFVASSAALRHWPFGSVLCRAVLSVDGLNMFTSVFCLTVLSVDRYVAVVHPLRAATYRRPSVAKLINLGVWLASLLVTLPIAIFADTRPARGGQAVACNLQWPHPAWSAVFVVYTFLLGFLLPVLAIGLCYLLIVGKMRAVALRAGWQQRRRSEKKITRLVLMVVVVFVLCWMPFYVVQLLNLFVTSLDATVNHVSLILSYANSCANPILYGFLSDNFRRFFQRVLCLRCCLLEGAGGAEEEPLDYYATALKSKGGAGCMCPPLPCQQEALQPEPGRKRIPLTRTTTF
UniProt P32745: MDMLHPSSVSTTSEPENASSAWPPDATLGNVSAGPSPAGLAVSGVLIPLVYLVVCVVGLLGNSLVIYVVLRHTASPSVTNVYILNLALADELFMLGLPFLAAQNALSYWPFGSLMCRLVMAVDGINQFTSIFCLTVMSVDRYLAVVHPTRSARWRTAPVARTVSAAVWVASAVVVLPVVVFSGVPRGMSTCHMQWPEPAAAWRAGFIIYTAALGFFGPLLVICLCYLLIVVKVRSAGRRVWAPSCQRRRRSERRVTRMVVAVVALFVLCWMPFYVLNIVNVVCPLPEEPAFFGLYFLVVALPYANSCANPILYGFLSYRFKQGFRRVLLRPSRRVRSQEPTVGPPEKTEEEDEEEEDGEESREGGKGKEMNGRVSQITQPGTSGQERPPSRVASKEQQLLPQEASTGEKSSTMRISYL
UniProt P30874: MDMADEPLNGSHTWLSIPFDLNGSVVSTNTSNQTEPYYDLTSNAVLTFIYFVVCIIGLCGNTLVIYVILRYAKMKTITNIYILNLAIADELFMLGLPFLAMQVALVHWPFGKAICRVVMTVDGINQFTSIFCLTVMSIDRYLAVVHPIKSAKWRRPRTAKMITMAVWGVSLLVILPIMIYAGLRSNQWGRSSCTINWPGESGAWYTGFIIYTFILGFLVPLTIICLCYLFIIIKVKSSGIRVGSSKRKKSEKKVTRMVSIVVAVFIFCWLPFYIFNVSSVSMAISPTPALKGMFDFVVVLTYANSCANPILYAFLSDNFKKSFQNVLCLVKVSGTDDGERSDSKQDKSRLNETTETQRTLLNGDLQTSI

2C(disialo)-R-K-SRIF14 [Example 50]
Ki (SSTR4; [2]): 1.39 to 172 nM
Ki (SSTR3): 0.16 to 13.8 nM
Ki (SSTR2): 0.0536 to 6.58 nM

3C(disialo)-R-K-SRIF14 [Example 51]
Ki value against SSTR4, folds that of SRIF14 (SSTR4; Example 69-2): ≥ 46 folds

29C(disialo)-SRIF28 [Example 13]
AUC increase compared to the non-glycosylated form SRIF28 ([1]; rats): 8-23 folds
t1/2 extension compared to the non-glycosylated form SRIF28 ([1]; rats): 13-18 folds

A15C(disialo)-SRIF28 [Example 7]
Ki (SSTR4; [3]): 1.39 to 172 nM
Ki (SSTR3): 0.16 to 13.8 nM
Ki (SSTR2): 0.0536 to 6.58 nM

Azido-S1C(disialo)-SRIF28 [Example 48]
Ki (SSTR4; [3]): 1.39 to 172 nM
Ki (SSTR3): 0.16 to 13.8 nM
Ki (SSTR2): 0.0536 to 6.58 nM

Biotin-PEG linker-S1C(disialo)-SRIF28 [Example 47]
Ki (SSTR4; [3]): 1.39 to 172 nM
Ki (SSTR3): 0.16 to 13.8 nM
Ki (SSTR2): 0.0536 to 6.58 nM

Biotin-S1C(disialo)-SRIF28 [Example 46]
Ki (SSTR4; [3]): 1.39 to 172 nM
Ki (SSTR3): 0.16 to 13.8 nM
Ki (SSTR2): 0.0536 to 6.58 nM

C(disialo(aminoethylamide))/S1C(disialo)-SRIF28 [Example 67]
AUC increase compared to the non-glycosylated form SRIF28 ([1]; rats): 6-12 folds
t1/2 extension compared to the non-glycosylated form SRIF28 ([1]; rats): 6-21 folds

C(disialo)-C12 linker-SRIF14 [Example 19]
AUC increase compared to the non-glycosylated form SRIF14 ([1]; rats): 14-30 folds
t1/2 extension compared to the non-glycosylated form SRIF14 ([1]; rats): 22-33 folds

C(disialo)-K-SRIF14 [Example 42]
Ki (SSTR4; [2]): 1.39 to 172 nM
Ki (SSTR3): 0.16 to 13.8 nM
AUC increase compared to the non-glycosylated form SRIF14 ([1]; rats): 44-55 folds
t1/2 extension compared to the non-glycosylated form SRIF14 ([1]; rats): 33-38 folds
Ki (SSTR2): 0.0536 to 6.58 nM

C(disialo)-R-K-SRIF14 [Example 18]
AUC increase compared to the non-glycosylated form SRIF14 ([1]; rats): 44-55 folds and 55 folds
t1/2 extension compared to the non-glycosylated form SRIF14 ([1]; rats): 33-38 folds and 38 folds

C(disialo)-SRIF14 [Example 17]
AUC increase compared to the non-glycosylated form SRIF14 ([1]; rats): 44-55 folds
t1/2 extension compared to the non-glycosylated form SRIF14 ([1]; rats): 33-38 folds

C(disialo)-SRIF28 [Example 36]
Ki (SSTR4; [3]): 1.39 to 172 nM
Ki (SSTR3): 0.16 to 13.8 nM
Ki (SSTR2): 0.0536 to 6.58 nM

E12C(disialo)-SRIF28 [Example 4]
AUC increase compared to the non-glycosylated form SRIF28 ([1]; rats): 8-23 folds
t1/2 extension compared to the non-glycosylated form SRIF28 ([1]; rats): 13-18 folds

G16C(disialo)-SRIF28 [Example 8]
Ki (SSTR4; [3]): 1.39 to 172 nM
Ki (SSTR3): 0.16 to 13.8 nM
Ki (SSTR2): 0.0536 to 6.58 nM

K14C(disialo)-SRIF28 [Example 6]
AUC increase compared to the non-glycosylated form SRIF28 ([1]; rats): 8-23 folds
t1/2 extension compared to the non-glycosylated form SRIF28 ([1]; rats): 13-18 folds
AUC for subcutaneous administration, folds of S1C(disialo)-SRIF28 ([1]; rats): 1.8-3.1 folds

K18C(disialo)-SRIF28 [Example 9]
Ki (SSTR4; [3]): 1.39 to 172 nM
Ki (SSTR3): 0.16 to 13.8 nM
Ki (SSTR2): 0.0536 to 6.58 nM

N5C(disialo)-SRIF28 [Example 2]
AUC [1, 4]: 4421 ± 1366 nM·min
C0 [1, 4]: 496 ± 312 nM
AUC [1, 5]: 2392 ± 443 nM·min
Cmax [1, 5]: 32.4 ± 4.87 nM

N19C(diMan)-SRIF28 [Example 54]
Ki (SSTR4; [3]): 1.39 to 172 nM
Ki (SSTR3): 0.16 to 13.8 nM
Ki (SSTR2): 0.0536 to 6.58 nM

N19C(disialo)-SRIF28 [Example 10]
AUC increase compared to the non-glycosylated form SRIF28 ([1]; rats): 8-23 folds
t1/2 extension compared to the non-glycosylated form SRIF28 ([1]; rats): 13-18 folds

R11C(disialo)-SRIF28 [Example 37]
Ki (SSTR4; [3]): 1.39 to 172 nM
Ki (SSTR3): 0.16 to 13.8 nM
Ki (SSTR2): 0.0536 to 6.58 nM

R13C(disialo)-SRIF28 [Example 5]
AUC increase compared to the non-glycosylated form SRIF28 ([1]; rats): 8-23 folds
t1/2 extension compared to the non-glycosylated form SRIF28 ([1]; rats): 13-18 folds
AUC for subcutaneous administration, folds of S1C(disialo)-SRIF28 ([1]; rats): 1.8-3.1 folds

S1-2C(disialo(Bn))-SRIF28 [Example 64]
Ki (SSTR4; [2]): 1.39 to 172 nM
Ki (SSTR3): 0.16 to 13.8 nM
AUC increase compared to the non-glycosylated form SRIF28 ([1]; rats): 6-12 folds
t1/2 extension compared to the non-glycosylated form SRIF28 ([1]; rats): 6-21 folds
Ki (SSTR2): 0.0536 to 6.58 nM

S1-2C(disialo(amide))-SRIF28 [Example 63]
Ki (SSTR4; [2]): 1.39 to 172 nM
Ki (SSTR3): 0.16 to 13.8 nM
AUC increase compared to the non-glycosylated form SRIF28 ([1]; rats): 6-12 folds
t1/2 extension compared to the non-glycosylated form SRIF28 ([1]; rats): 6-21 folds
Ki (SSTR2): 0.0536 to 6.58 nM

S1-2C(disialo)-SRIF28 [Example 20]
AUC increase compared to the non-glycosylated form SRIF28 ([1]; rats): 12 folds and 6-12 folds
AUC [1, 4]: 7306 ± 625 nM·min
C0 [1, 4]: 1382 ± 321 nM
MRT [1, 6]: 23.0
T1/2 [1, 6]: 28.2
AUC [1, 5]: 4046 ± 248 nM·min
Cmax [1, 5]: 46.3 ± 9.75 nM
MRT ([1]; rats, subcutaneous administration): 65.3
bioavailability (BA) ([1]; rats): 55%

S1-3C(disialo)-SRIF28 [Example 24]
AUC increase compared to the non-glycosylated form SRIF28 ([1]; rats): 12 folds
t1/2 extension compared to the non-glycosylated form SRIF28 ([1]; rats): 30 folds
AUC [1, 4]: 5660 ± 1354 nM·min
C0 [1, 4]: 1061 ± 209 nM
AUC ([1]; rats, intravenous administration, Tables 5B-5F (unit not given; Table 5A: min · nM)): 5834
T1/2 [1, 6]: 39.5
C0 ([1]; rats, intravenous administration, Tables 5B-5F (unit not given; Table 5A: nM)): 1083
AUC [1, 5]: 3884 ± 543 nM·min
Cmax [1, 5]: 27.5 ± 10.8 nM
bioavailability (BA) ([1]; rats): 69%

S1-4C(disialo)-SRIF28 [Example 68]
Ki (SSTR4; [2]): 1.39 to 172 nM
Ki (SSTR3): 0.16 to 13.8 nM
Ki (SSTR2): 0.0536 to 6.58 nM

S1C(Asn(disialo))-SRIF28 [Example 65]
Ki (SSTR4; [3]): 1.39 to 172 nM
Ki (SSTR3): 0.16 to 13.8 nM
Ki (SSTR2): 0.0536 to 6.58 nM

S1C(GlcNAc)-SRIF28 [Example 55]
Ki (SSTR4; [2]): 1.39 to 172 nM
Ki (SSTR3): 0.16 to 13.8 nM
Ki (SSTR2): 0.0536 to 6.58 nM

S1C(asialo)-SRIF28 [Example 27]
Ki (SSTR4; [2]): 1.39 to 172 nM
Ki (SSTR3): 0.16 to 13.8 nM
Ki (SSTR2): 0.0536 to 6.58 nM

S1C(diGlcNAc)-SRIF28 [Example 52]
Ki (SSTR4; [2]): 1.39 to 172 nM
Ki (SSTR3): 0.16 to 13.8 nM
Ki (SSTR2): 0.0536 to 6.58 nM

S1C(diMan)-SRIF28 [Example 53]
Ki (SSTR4; [2]): 1.39 to 172 nM
Ki (SSTR3): 0.16 to 13.8 nM
Ki (SSTR2): 0.0536 to 6.58 nM

S1C(disialo (hexadecylamide))-SRIF28 [Example 62]
Ki (SSTR4; [3]): 1.39 to 172 nM
Ki (SSTR3): 0.16 to 13.8 nM
Ki (SSTR2): 0.0536 to 6.58 nM

S1C(disialo(Bn))-SRIF28 [Example 61]
Ki (SSTR4; [2]): 1.39 to 172 nM
Ki (SSTR3): 0.16 to 13.8 nM
AUC increase compared to the non-glycosylated form SRIF28 ([1]; rats): 7-12 folds
t1/2 extension compared to the non-glycosylated form SRIF28 ([1]; rats): 11-14 folds
Ki (SSTR2): 0.0536 to 6.58 nM

S1C(disialo)-D-Trp22-SRIF28 [Example 15]
AUC increase compared to the non-glycosylated form SRIF28 ([1]; rats): 8-23 folds
t1/2 extension compared to the non-glycosylated form SRIF28 ([1]; rats): 13-18 folds

S1C(disialo)-SRIF28-amide [Example 44]
Ki (SSTR4; [3]): 1.39 to 172 nM
Ki (SSTR3): 0.16 to 13.8 nM
Ki (SSTR2): 0.0536 to 6.58 nM

S1C(disialo)•E12C(disialo)-SRIF28 [Example 49]
Ki (SSTR4; [3]): 1.39 to 172 nM
Ki (SSTR3): 0.16 to 13.8 nM
Ki (SSTR2): 0.0536 to 6.58 nM

S1C(disialo)•N5C(disialo)-SRIF28 [Example 21]
increase in half-life in blood [1]: ≥ 25 folds
AUC [1, 4]: 4099 ± 634 nM·min
C0 [1, 4]: 558 ± 248 nM
AUC, intravenous administration ([1]; rats, intravenous, 40 nmol/kg): 4029 to 4465 nM·min
AUC for subcutaneous administration, folds of S1C(disialo)-SRIF28 ([1]; rats): 1.8-3.1 folds
AUC [1, 5]: 3344 ± 663 nM·min
Cmax [1, 5]: 35.5 ± 6.38 nM
bioavailability (BA) ([1]; rats): 77-85%

S1C(disialo)•N5C(disialo)•A9C(disialo)-SRIF28 [Example 25]
increase in half-life in blood [1]: ≥ 30 folds
AUC [1, 4]: 4402 ± 999 nM·min
C0 [1, 4]: 938 ± 145 nM
AUC for subcutaneous administration, folds of S1C(disialo)-SRIF28 ([1]; rats): 1.8-3.1 folds
AUC [1, 5]: 4015 ± 944 nM·min
Cmax [1, 5]: 24.8 ± 9.03 nM
bioavailability (BA) ([1]; rats): 91%

S1C(tetrasialo)-SRIF28 [Example 58]
Ki (SSTR4; [3]): 1.39 to 172 nM
Ki (SSTR3): 0.16 to 13.8 nM
Ki (SSTR2): 0.0536 to 6.58 nM

S1N(disialo)•N19C(diMan)-SRIF28 [Example 66]
Ki (SSTR4; [3]): 1.39 to 172 nM
Ki (SSTR3): 0.16 to 13.8 nM
Ki (SSTR2): 0.0536 to 6.58 nM

S27C(disialo)-SRIF28 [Example 41]
Ki (SSTR4; [3]): 1.39 to 172 nM
Ki (SSTR3): 0.16 to 13.8 nM
Ki (SSTR2): 0.0536 to 6.58 nM

From patent US9802996B2, “Glycosylated polypeptide and drug composition containing said polypeptide” (Glytech, Inc., priority 2011, dated 2017)
